# Measured values published in PubChem BioAssay AID463210 (The Scripps Research Institute Molecular Screening Center, 2010).
# The chains behind the UniProt entries cited, without tags or fusion partners.
# UniProt P55210, whole entry D23A/D198A/D206A: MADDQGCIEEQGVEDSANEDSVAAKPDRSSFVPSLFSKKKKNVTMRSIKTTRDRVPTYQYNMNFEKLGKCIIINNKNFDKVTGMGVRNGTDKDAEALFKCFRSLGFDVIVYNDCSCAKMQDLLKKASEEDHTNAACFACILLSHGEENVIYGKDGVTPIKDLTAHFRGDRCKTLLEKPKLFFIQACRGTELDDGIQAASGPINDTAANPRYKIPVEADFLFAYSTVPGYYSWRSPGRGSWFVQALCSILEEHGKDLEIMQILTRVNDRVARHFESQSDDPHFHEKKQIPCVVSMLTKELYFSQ
# The entries are a selection whose mix differs from that of the whole data set. Calls of active or inactive are those of the source.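 How the source made its calls: active means percent activation above the screen-wide mean plus 3 SD (cut at about 25% in these data); inactive means the rest.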
# Molecular target: Caspase-7 (Homo sapiens) (UniProt P55210)
# Test: activation of procaspase-7 enzyme – biochemical, absorbance, HTS, human, counter-screen for procaspase-3 activator project, primary screen (AID 463210)
# Settings: recombinant procaspase-7, Ac-DEVD-pNA absorbance 405 nm; at 8.5 µM; hits give high values; D23A/D198A/D206A triple mutant, cannot self-cleave; scale: DMSO 0, 5 µM enzyme 100
# How it was run: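 signal = Epi-absorbance of released pNA at 405 nm, two timepoints | assay system = Uncleavable procaspase-7 mutant enzyme | reagent = Ac-DEVD-pNA substrate, 400 µM as added | times = 1 h enzyme–compound preincubation and 2 h substrate reaction, both 25 °C | benchmarks = low DMSO alone, high DMSO plus 5 µM PC-7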
row,Structure (SMILES),activation
1,COc1ccccc1OP(C)(=O)Nc1ccccc1 (configuration not stated),inactive: 10.5%
2,CN(C)CCOC(=O)C(O)(c1ccccc1)C1CCCC1 (configuration not stated),inactive: 6.98%
